Broadly, the kcat/Km is the turnover number divided by the Michaelis constant. The term Km denotes the concentration of substrate that gives half-maximal velocity. By kcat is commonly meant the maximal rate divided by the concentration of active sites.

This passage reports kcat/Km, Km and kcat results from ChEMBL document CHEMBL1275262, “Stereoselective phosphorylation of cyclopropavir by pUL97 and competitive inhibition by maribavir” (Antimicrob Agents Chemother, 2010).

Substrate in data set [1]: Nc1nc2c(ncn2/C=C2/CC2(CO)CO)c(=O)[nH]1
Particulars: Human betaherpesvirus 5; pUL97.

Substrate in data set [2]: Nc1nc2c(ncn2/C=C2/CC2(CO)CO)c(=O)[nH]1
Particulars: Human betaherpesvirus 5; pUL97. This is another data set of the same source.

B1: Serine/threonine protein kinase UL97 (Human herpesvirus 5), P16788 (protein)
chain: MSSALRSRARSASLGTTTQGWDPPPLRRPSRARRRQWMREAAQAAAQAAVQAAQAAAAQVAQAHVDENEVVDLMADEAGGGVTTLTTLSSVSTTTVLGHATFSACVRSDVMRDGEKEDAASDKENLRRPVVPSTSSRGSAASGDGYHGLRCRETSAMWSFEYDRDGDVTSVRRALFTGGSDPSDSVSGVRGGRKRPLRPPLVSLARTPLCRRRVGGVDAVLEENDVELRAESQDSAVASGPGRIPQPLSGSSGEESATAVEADSTSHDDVHCTCSNDQIITTSIRGLTCDPRMFLRLTHPELCELSISYLLVYVPKEDDFCHKICYAVDMSDESYRLGQGSFGEVWPLDRYRVVKVARKHSETVLTVWMSGLIRTRAAGEQQQPPSLVGTGVHRGLLTATGCCLLHNVTVHRRFHTDMFHHDQWKLACIDSYRRAFCTLADAIKFLNHQCRVCHFDITPMNVLIDVNPHNPSEIVRAALCDYSLSEPYPDYNERCVAVFQETGTARRIPNCSHRLRECYHPAFRPMPLQKLLICDPHARFPVAGLRRYCMSELSALGNVLGFCLMRLLDRRGLDEVRMGTEALLFKHAGAACRALENGKLTHCSDACLLILAAQMSYGACLLGEHGAALVSHTLRFVEAKMSSCRVRAFRRFYHECSQTMLHEYVRKNVERLLATSDGLYLYNAFRRTTSIICEEDLDGDCRQLFPE
As for B1, the kcat/Km in data set [1] was found to be 0.69 M⁻¹ s⁻¹. In data set [2], the Michaelis constant (Km) came to 1750 µM and the kcat turned out to be 0.0012 s⁻¹.
